pIC50, pKi: −log10 of the molar value.
How the values were obtained:
[1] = target: angiotensin I-converting enzyme (ACE) (Homo sapiens, UniProt P12821); assay: Inhibition of purified angiotensin I-converting enzyme; type: biochemical
Experimental: (§1) For this reason, the inhibitory capacity of the phosphinic peptide propyl-NH-Arg-Phe(PO2—CH2)Leu-Ala-NH2 was evaluated with respect to the purified forms of these two peptidases (measurement of the Ki values according to Dive et al., PNAS, 1999, 96, 4330-4335). […] This compound therefore behaves as an extremely potent inhibitor with respect to these two peptidases.
(§2) In order to have a better knowledge of the inhibitory properties of the various molecules contained in the starting library, with respect to ACE and NEP, the inhibitory capacity of sublibraries containing discrete mixtures of generic formula: propyl-NH-Aaa-Phe (PO2—CH2)Leu-Yaa-NH2
(§3) in which the position marked as Aaa contains a specific amino acid, whereas, in position Yaa, a mixture of 20 natural acids occurs, was evaluated.
FIG. 24 gives the percentage inhibition of the mixtures of phosphinic peptides, corresponding to the generic formula above, with respect to ACE, according to the nature of the residue at position Aaa. The results reported in this figure indicate very clearly that many phosphinic peptides present in these sublibraries appear to be potent inhibitors of ACE. Advantageously, it is seen that, among the residues at position Aaa that optimize the inhibitory capacity of the compounds with respect to ACE, are the residues His, Arg and Tyr.

Chains of the proteins cited; added tags and fusions are not shown. Residues count along the entry.
UniProt P12821, 30-1306, species assumed: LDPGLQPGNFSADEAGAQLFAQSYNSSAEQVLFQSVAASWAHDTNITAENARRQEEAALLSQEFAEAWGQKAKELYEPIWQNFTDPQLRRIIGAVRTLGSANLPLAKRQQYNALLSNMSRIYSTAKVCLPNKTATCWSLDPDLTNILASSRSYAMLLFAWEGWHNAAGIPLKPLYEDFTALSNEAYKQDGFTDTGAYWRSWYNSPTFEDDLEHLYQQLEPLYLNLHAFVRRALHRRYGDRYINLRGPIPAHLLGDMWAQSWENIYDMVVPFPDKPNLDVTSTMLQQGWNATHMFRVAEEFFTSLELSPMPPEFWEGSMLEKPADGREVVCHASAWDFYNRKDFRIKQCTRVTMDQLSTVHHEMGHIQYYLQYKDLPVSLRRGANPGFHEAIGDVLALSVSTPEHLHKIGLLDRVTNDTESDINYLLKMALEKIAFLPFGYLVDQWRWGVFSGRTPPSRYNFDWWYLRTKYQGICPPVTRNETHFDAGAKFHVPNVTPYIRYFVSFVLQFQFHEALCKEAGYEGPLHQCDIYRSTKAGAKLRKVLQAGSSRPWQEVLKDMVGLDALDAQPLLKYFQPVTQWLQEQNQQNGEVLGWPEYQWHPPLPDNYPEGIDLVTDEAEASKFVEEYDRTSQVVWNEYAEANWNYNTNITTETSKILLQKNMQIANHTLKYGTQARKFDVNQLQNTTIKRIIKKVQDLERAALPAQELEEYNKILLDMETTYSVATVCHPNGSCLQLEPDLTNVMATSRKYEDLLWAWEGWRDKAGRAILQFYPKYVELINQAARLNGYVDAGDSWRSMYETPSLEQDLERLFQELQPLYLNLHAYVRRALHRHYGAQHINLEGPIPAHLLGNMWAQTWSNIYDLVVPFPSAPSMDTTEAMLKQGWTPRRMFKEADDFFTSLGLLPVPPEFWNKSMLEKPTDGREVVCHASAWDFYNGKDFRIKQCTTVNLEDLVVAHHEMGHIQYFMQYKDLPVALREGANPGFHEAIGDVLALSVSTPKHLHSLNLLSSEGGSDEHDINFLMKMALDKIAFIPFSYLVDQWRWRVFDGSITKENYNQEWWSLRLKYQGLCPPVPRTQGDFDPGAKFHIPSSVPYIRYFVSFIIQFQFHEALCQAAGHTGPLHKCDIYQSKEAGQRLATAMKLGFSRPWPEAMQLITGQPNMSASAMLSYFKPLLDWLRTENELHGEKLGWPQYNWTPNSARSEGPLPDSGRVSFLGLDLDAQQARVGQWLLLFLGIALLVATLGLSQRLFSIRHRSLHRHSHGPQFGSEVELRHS
UniProt P08473, whole entry, species assumed: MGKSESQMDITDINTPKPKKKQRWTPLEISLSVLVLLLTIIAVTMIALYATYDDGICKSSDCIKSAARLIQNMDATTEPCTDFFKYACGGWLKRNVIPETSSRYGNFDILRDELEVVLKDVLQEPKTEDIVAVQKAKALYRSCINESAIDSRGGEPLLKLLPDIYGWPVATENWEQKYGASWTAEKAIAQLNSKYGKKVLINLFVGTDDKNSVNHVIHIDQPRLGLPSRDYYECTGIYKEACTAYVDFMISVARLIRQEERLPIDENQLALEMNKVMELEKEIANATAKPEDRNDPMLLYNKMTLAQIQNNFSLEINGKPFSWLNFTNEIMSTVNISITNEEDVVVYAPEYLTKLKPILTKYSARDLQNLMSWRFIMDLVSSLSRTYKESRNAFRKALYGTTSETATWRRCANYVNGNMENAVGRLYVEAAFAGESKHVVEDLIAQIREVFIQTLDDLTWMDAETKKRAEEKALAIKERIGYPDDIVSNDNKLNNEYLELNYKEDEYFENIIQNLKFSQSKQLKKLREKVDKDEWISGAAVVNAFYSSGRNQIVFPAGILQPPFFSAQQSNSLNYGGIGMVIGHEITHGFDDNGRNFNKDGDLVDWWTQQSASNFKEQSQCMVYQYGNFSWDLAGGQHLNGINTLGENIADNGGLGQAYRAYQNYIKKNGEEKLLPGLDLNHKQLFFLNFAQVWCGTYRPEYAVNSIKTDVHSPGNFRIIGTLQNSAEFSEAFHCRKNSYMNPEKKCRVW

[2] = target: neutral endopeptidase (NEP, neprilysin) (Homo sapiens, UniProt P08473); assay: Inhibition of purified neutral endopeptidase; type: biochemical; details: purified enzyme
Experimental: as §1, §2, §3
When the same sublibraries are tested on NEP (FIG. 25), it also appears that many peptides contained in the sublibraries should behave as very potent inhibitors of NEP. It will be noted that several types of amino acid at position Aaa optimize the enzyme-inhibitor interactions.

[3] = In vivo screening of the tritiated phosphinic peptide library in mice (β-imager autoradiography, organ extraction, MS/MS); set-up: species or system mouse; details: kidney, lung and heart extracts after i.p. injection of the library
Experimental: (§4) The mice used for the experiments are female Balb/C mice. The phosphinic peptides of the library (10 mg, radioactivity ranging from 0.8 to 1 mCi) are solubilized in a solution of PBS containing 10% of DMSO. If the presence of 400 molecules in this library is considered, the amount of each product injected is of the order of 25 μg per animal, representing a dose of 1.25 mg/kg for mice weighing 20 g. In the case of injection of a single product, the doses used were 20 mg/kg, for a total radioactivity ranging from 100 to 150 μCi. The injections were given at various times (5 min, 1 h, 3 h and 24 h).
Immediately after the animals had been sacrificed, the various organs or tissues are removed, rinsed in a PBS solution and immersed in heptane cooled to −70° C. […] After drying, the sections are analyzed in a β-imager. […]
After a certain period of time (1 h or 15 min), the animals are sacrificed. Whole body sections are prepared and analyzed by autoradiography on a β-imager, a device capable of detecting the β-radiation of tritium. These experiments indicate, both at 15 min and 1 h after injection of the library, that radioactivity is observed in various organs; FIG. 5 illustrates an autoradiograph, produced on a β-imager, of a sagittal section of the whole body of a mouse which was administered a solution containing the library of phosphinic peptides and which was sacrificed 1 h after the injection. […]

[4] = Tissue distribution of the pure radiolabeled peptide in mice (autoradiography, HPLC with radioactivity detection); type: in vivo, mouse; details: 20 mg/kg
Experimental: as §4
Immediately after the animals had been sacrificed, the various organs or tissues are removed, rinsed in a PBS solution and immersed in heptane cooled to −70° C. (eutectic mixture of heptane and dry ice). The frozen tissue sections, 25 μm thick, are prepared by means of a microtome at −20° C. After drying, the sections are analyzed in a β-imager.
FIGS. 14 to 19 represent HPLC spectra, with detection of radioactivity, corresponding to the pure tritiated product propyl-Arg-Phe(PO2—CH2)Leu-Ala-NH2, and to the various organ extracts originating from a mouse that was administered the peptide propyl-Arg-Phe(PO2—CH2)Leu-Ala-NH2 (20 mg/kg, 100 μCi) and was sacrificed 1 h after injection of the product.
In order to illustrate the ability of the peptide propyl-Arg-Phe(PO2—CH2)Leu-Ala-NH2, firstly, to target certain organs such as the heart and the lungs and, secondly, to accumulate in these organs, another molecule was used under the same conditions as a negative control; it is another molecule of the library described above, i.e. propyl-Tyr-Phe(PO2—CH2)Leu-Pro-NH2.

[5] = Quantification of the radiolabeled peptide in mouse organs by β-imager and mass spectrometry; type: in vivo; details: mice, 500 μg injected, 1 h
Experimental: In order to establish this comparison, 500 μg of a tritium-radiolabeled phosphinic compound propyl-Arg-Phe(PO2—CH2)Ala-Ala-NH2 (pro-Arg) (specific radioactivity of 68 mCi/mmol) were injected into mice. One hour after injection of the product, its tissue distribution was studied by detection of the radioactivity using frozen tissue sections. The organs containing radioactivity were treated in order to prepare tissue extracts which could enable their analysis by mass spectrometry, in accordance with the extraction protocol illustrated in FIG. 26.
Based on the integration of the signal and of the specific radioactivity of the product (68 mCi/mmol), it is possible to determine the amount of product present per mm^2 of kidney.
Mass: the product is extracted from ground kidney material originating from an animal treated under the same conditions as above (extraction protocol described in FIG. 26), followed by concentration of the fractions to dryness and taking up the product in 100 μl of solvent (water/formic acid; 50:50); if the extraction was quantitative, the theoretical concentration of the sample should be of the order of 1.5 mM. Based on this working hypothesis, it can be estimated that the injection of a microliter of this 100-fold diluted solution (15 μM) represents 15 pmol of product introduced into the mass spectrometer (Electrospray, Quatro, Micromass).

[6] = integrated over the whole kidney

propyl-NH-Arg-Phe(PO2—CH2)Leu-Ala-NH2
pKi ([1]; corresponding to the IC50, read-out: inhibition constant Ki, angiotensin-converting enzyme): 7.82 | pIC50 ([1]; read-out: IC50 with respect to angiotensin-converting enzyme): 7.52 | pKi ([2]; corresponding to the IC50, read-out: inhibition constant Ki, NEP): 7.52 | pIC50 ([2]; read-out: IC50 with respect to NEP): 7.00 | presence of the peptide in organ extracts by MS/MS [3]: this peptide is present in these organs | ability to accumulate in the heart and the lungs and to appear in the brain, compared with the negative control peptide ([4]; 100 μCi, 1 h): distinguishes itself very clearly | crossing of the blood-brain barrier ([4]; 100 μCi, I.P., 1 h): capable of crossing the blood-brain barrier | tissue distribution by autoradiography ([4]; 100 μCi, I.P., sacrificed 1 h after injection): observed in the heart, the brain, the liver, the lungs and the kidneys | form of the radioactivity found in the organs (metabolic stability) ([4]; I.P., 1 h, extraction and structural analysis): in intact form | presence of the product in brain extract by MS/MS fragmentation ([5]; brain extract): presence of the intact product in the brain | radiolabeling in a localized region of the brain ([5]; brain, β-imager): 0.35 pCi/mm^2 | total amount of product in the kidney [5, 6]: 75 µg | total amount of product in the kidney, share of the injected dose [5, 6]: 15 % of the injected dose | amount of product per mm^2 of kidney (mass) ([5]; kidney): 127 pg/mm^2 | radioactive signal on kidney section ([5]; kidney, β-imager): 14.5 pCi/mm^2 | amount of product per mm^2 of kidney (molar) ([5]; kidney, from specific radioactivity 68 mCi/mmol): 0.2 pmol/mm^2 | amount of product in the lung, share of the injected dose ([5]; lung): 2.2 % of the injected dose | radioactivity in the lung ([5]; lung, β-imager): 2.6 pCi/mm^2

Source: patent US7541157B2, “Method of screening groups of radioactive molecules and applications thereof” (Commissariat a l'Energie Atomique, priority 2002, dated 2009)
